These results are taken from publication PMC11272584 (Nature Metabolism, 2024).

Test [1] has as its target T1, GIPR H166Y (Homo sapiens, UniProt P48546, H166Y).
T1 sequence (P48546 22-466 H166Y): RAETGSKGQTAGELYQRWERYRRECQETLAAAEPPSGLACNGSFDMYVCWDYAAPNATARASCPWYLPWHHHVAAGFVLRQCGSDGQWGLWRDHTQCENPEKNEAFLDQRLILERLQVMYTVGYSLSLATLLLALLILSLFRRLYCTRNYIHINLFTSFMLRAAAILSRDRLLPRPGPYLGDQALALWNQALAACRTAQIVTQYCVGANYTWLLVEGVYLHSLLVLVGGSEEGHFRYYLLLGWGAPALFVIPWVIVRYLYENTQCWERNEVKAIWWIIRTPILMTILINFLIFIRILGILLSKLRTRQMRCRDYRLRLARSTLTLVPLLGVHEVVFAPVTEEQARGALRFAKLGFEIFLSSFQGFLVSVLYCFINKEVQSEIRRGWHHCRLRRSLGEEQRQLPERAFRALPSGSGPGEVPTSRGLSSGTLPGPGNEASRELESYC
The note with it: GIPR H166Y (ICL1), mean, n = 5, duplicate.

For another test, the target named is T2, GIPR R38L (Homo sapiens, UniProt P48546, R38L).
T2 sequence (P48546 22-466 R38L): T1 sequence (P48546 22-466 H166Y) with R17L, Y145H
The test is described as follows: cAMP accumulation. Also on record: host or cells: HEK293. The class given is cell-based. (Cyclic AMP is a second messenger, typically raised through Gs and lowered through Gi signalling.)

The next test deals with T3, GIPR R43G (Homo sapiens, UniProt P48546, R43G).
T3 sequence (P48546 22-466 R43G): T1 sequence (P48546 22-466 H166Y) with R22G, Y145H
The test is described as follows: cAMP accumulation. The class given is cell-based. Set-up: host or cells: HEK293.

For another test, the target named is T4, GIPR A150T (Homo sapiens, UniProt P48546, A150T).
T4 sequence (P48546 22-466 A150T): T1 sequence (P48546 22-466 H166Y) with A129T, Y145H
The test is described as follows: cAMP accumulation. The class given is cell-based. Set-up: host or cells: HEK293.

In test [2] the target is T1, GIPR H166Y. The test is described as follows: cAMP accumulation. Set-up: host or cells: HEK293. The class given is cell-based.
The target in the next test is T5, GIPR E463Q (Homo sapiens, UniProt P48546, E463Q).
T5 sequence (P48546 22-466 E463Q): T1 sequence (P48546 22-466 H166Y) with Y145H, E442Q
The test is described as follows: cAMP accumulation. The class given is cell-based. Set-up: host or cells: HEK293.

Setting [3] is: HEK293, GIP(1–42) 1 pM–100 nM, 30 min 37 °C, mean of n = 3.
Setting [4] is: HEK293, Hill slope 1.0, mean of n = 3.

Numbering of substitutions follows the chain as printed.

For “glucose-dependent insulinotropic polypeptide [GIP]”, at GIPR H166Y [1] (Hill slope 1.0), the “logEC50 (Arrestin)” value was -9.2. In addition, the “Arrestin (Emax)” value at GIPR H166Y [1] (normalized to WT GIPR) was 36. Further, the “cAMP (Emax)” value is on record as 100 % of WT GIPR activity at GIPR R38L (HEK293, GIP(1–42) 1 pM–100 nM, 30 min 37 °C, mean of n = 4); 131 % of WT GIPR activity at GIPR R43G (HEK293, GIP(1–42) 1 pM–100 nM, 30 min 37 °C, mean of n = 5); 16 % of WT GIPR activity at GIPR A150T (setting [3]); 129 % of WT GIPR activity at GIPR H166Y [2] (setting [3]); 95 % of WT GIPR activity at GIPR E463Q (setting [3]). Further, the “logEC50 (cAMP)” value on GIPR R38L (HEK293, Hill slope 1.0, mean of n = 4) is -10.9; at GIPR R43G (HEK293, Hill slope 1.0, mean of n = 5), -11.2; on GIPR A150T (setting [4]) it was -11.3; at GIPR H166Y [2] (setting [4]) it was -10.6; at GIPR E463Q (setting [4]), -11.2.
